Source: ChEMBL document CHEMBL1146079, “Inhibition of human acetyl- and butyrylcholinesterase by novel carbamates of (-)- and (+)-tetrahydrofurobenzofuran and methanobenzodioxepine” (J Med Chem, 2006)

By UniProt entry, the sequences of proteins in these tests, tags left out. Where a name states a change or a piece, a line headed by the entry shows the natural chain unless it says otherwise.
UniProt P22303: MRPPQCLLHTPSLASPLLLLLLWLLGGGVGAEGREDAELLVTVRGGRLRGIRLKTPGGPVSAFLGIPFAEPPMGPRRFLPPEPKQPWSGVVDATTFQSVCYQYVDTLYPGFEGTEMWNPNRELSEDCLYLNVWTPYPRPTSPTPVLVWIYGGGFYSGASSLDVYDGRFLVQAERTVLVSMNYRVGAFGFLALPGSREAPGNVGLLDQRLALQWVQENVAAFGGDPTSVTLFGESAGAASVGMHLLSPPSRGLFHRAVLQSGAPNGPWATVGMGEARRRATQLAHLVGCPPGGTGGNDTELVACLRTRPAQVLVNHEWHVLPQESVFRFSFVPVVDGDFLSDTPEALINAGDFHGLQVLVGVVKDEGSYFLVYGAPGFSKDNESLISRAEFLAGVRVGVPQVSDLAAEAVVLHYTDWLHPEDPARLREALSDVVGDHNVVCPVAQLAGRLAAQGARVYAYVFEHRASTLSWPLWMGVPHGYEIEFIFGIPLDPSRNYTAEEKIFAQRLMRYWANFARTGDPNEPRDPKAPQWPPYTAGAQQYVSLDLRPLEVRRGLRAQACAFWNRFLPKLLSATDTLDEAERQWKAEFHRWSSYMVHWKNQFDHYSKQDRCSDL
UniProt P06276, whole entry: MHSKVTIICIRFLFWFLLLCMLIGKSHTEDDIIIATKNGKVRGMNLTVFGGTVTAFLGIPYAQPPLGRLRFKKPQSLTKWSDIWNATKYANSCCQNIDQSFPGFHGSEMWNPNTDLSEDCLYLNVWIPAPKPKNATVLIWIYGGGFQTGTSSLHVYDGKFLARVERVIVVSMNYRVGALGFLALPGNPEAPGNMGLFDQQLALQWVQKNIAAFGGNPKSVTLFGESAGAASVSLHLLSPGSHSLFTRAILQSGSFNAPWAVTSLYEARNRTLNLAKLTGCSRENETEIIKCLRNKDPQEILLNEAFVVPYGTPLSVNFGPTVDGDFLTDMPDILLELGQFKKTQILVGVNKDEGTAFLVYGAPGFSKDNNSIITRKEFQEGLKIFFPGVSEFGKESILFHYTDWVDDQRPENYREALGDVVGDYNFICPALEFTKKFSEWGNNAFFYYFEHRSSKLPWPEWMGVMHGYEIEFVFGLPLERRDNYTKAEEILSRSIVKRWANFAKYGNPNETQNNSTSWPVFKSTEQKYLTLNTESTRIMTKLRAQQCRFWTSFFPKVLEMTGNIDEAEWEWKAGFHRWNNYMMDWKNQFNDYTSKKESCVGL

Experiments:
[1] = target: Acetylcholinesterase (Homo sapiens, UniProt P22303)
[2] = target: Cholinesterase (Homo sapiens, UniProt P06276)

Structure (SMILES)	IC50 [1]	IC50 [2]
Cc1ccccc1NC(=O)Oc1ccc2c(c1)[C@@]1(C)CCO[C@H]1O2	36 nM	
CC(C)c1ccc(NC(=O)Oc2ccc3c(c2)[C@@]2(C)CCN(C)[C@H]2N3C)cc1		5100 nM
Cc1ccccc1NC(=O)Oc1ccc2c(c1)[C@]1(C)CCO[C@@H]1O2	20 nM	
C=CC[N+](C)(C)c1ccc(CCC(=O)CCc2ccc([N+](C)(C)CC=C)cc2)cc1	18 nM	48000 nM
